Measurements from patent US9975885B2, “Broad-spectrum non-covalent coronavirus protease inhibitors” (priority 2016, dated 2018).

Sequences of proteins named here, by UniProt entry; tags and fusion partners are left off. Residues count along the entry.
UniProt P0C6X2, 3335-3637 limits assumed: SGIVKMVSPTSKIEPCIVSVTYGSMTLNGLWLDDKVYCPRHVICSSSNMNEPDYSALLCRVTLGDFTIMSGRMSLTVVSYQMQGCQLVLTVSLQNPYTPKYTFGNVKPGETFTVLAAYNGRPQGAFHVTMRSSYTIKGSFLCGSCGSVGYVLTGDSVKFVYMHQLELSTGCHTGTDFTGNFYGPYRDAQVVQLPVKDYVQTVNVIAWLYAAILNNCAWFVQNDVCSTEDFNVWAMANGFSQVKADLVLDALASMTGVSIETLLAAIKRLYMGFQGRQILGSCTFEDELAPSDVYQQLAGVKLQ

Target: HKU1-3CL^pro (Human coronavirus HKU1 (isolate N1) (HCoV-HKU1), UniProt P0C6X2)
Assay: biochemical

CC(C)(C)NC(=O)C(c1cccnc1)N(C(=O)c1c[nH]cn1)c1ccc(C(C)(C)C)cc1 (stereo not shown) [Compound 3P, reference compound] was tested, and the IC50 was 8.4 ± 0.7 µM.
